This note sets out measurements from patent US6271266A, “Use of idebenone and analogues against β amyloid induced cytotoxicity” (Takeda Chemical Industries, Ltd., priority 1996, dated 2001).

The series can be described thus: Acute toxicity in mice. As to conditions: mouse, in vivo, both sexes.

As for `COC1=C(OC)C(=O)C(CCCCCCCCCCO)=C(C)C1=O` [idebenone, 6-(10-hydroxydecyl)-2,3-dimethoxy-5-methyl-1,4-benzoquinone], the LD50 – broadly, the dose at which mortality reaches 50% – is no less than 10000 mg/kg.
